Laboratory results: patent publication US12414932B2, “Arsinothricin and methods of treating infections using arsinothricin” (priority 2018, dated 2025)

Protein sequences, listed by entry. Tags and fused reporters are not part of them. Lines headed by an entry give the natural chain unless they say otherwise; changes in a name come on top. Residues count along the entry.
UniProt Q57146: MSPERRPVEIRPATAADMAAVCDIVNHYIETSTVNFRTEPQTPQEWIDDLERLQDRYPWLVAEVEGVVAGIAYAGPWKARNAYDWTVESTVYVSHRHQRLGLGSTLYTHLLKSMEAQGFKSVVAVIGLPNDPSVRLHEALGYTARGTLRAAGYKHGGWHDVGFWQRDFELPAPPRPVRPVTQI
UniProt Q88LK7, 1-186: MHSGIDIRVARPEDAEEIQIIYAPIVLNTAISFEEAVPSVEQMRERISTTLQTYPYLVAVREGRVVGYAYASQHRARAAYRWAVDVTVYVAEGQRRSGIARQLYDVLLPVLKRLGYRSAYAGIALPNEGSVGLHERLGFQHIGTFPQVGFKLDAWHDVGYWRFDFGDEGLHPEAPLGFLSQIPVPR
UniProt P0A9C5, 2-469: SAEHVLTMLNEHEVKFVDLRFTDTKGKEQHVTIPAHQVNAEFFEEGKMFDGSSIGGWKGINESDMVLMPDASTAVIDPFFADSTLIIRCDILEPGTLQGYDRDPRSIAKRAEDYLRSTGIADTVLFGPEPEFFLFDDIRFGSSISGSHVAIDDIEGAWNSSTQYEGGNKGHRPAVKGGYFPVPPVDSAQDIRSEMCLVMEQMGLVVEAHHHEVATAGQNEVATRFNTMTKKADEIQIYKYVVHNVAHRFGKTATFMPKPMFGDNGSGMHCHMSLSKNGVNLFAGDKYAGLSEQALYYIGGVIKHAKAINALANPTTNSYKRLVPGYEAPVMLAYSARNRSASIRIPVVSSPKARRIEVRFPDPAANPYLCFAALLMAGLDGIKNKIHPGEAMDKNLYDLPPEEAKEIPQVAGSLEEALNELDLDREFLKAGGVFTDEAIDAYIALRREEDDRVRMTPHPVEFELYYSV

Key:
P. putida Aars1,2 = type: cell-based, Pseudomonas putida
[1] = target: phosphinothricin N-acetyltransferase (SvPAT) (Streptomyces viridochromogenes, UniProt Q57146); assay: N-acetyltransferase assay (DTNB) with SvPAT; type: biochemical, Streptomyces viridochromeogenes
[2] = tested on: wild type P. putida KT2440
[3] = tested on: E. coli AW3110 bearing plasmid carrying PparsN1
PpArsN1 = PpArsN1 (Pseudomonas putida, UniProt Q88LK7)
E. coli AW3110 = type: cell-based, Escherichia coli
[4] = target: glutamine synthetase (GS) from E. coli (Escherichia coli, UniProt P0A9C5); settings: purified E. coli GS, 37° C., mean±SE (n=3)
[5] = tested on: carbapenem-resistant Enterobacter cloacae (ATCC BAA-2341)

SMILES | resistance or sensitivity of the strain (P. putida Aars1,2) | affinity and catalytic efficiency of SvPAT compared with PpArsN1 [1] | resistance or sensitivity of the strain [2] | resistance or sensitivity of the strain [3] | Kcat (PpArsN1; as substrate of PpArsN1) | Km (PpArsN1; as substrate of PpArsN1) | resistance or sensitivity of the strain (E. coli AW3110) | Ki [4] | growth inhibition of carbapenem-resistant E. cloacae [5] | catalytic efficiency (Kcat/Km) compared with PT (PpArsN1)
CP(=O)(O)CCC(N)C(=O)O (racemic) [PT, phosphinothricin, reference compound] | sensitive | two orders of magnitude higher affinity | resistance | confers resistance | 9.6 ± 0.9 s⁻¹ | 1 ± 0.2 mM | – | – | – | –
C[As](=O)(O)CC[C@H](N)C(=O)O [AST, 2-amino-4-(hydroxymethylarsinoyl) butanoate] | sensitive | – | resistant | confers resistance | – | – | similarly sensitive | 300 ± 50 nM | effectively inhibited the growth | 15 fold
